From PMC5080452 (Bioorganic & Medicinal Chemistry, 2016)

The chains behind the UniProt entries cited, without tags or fusion partners. Residues count along the entry.
UniProt O42275, 24-633: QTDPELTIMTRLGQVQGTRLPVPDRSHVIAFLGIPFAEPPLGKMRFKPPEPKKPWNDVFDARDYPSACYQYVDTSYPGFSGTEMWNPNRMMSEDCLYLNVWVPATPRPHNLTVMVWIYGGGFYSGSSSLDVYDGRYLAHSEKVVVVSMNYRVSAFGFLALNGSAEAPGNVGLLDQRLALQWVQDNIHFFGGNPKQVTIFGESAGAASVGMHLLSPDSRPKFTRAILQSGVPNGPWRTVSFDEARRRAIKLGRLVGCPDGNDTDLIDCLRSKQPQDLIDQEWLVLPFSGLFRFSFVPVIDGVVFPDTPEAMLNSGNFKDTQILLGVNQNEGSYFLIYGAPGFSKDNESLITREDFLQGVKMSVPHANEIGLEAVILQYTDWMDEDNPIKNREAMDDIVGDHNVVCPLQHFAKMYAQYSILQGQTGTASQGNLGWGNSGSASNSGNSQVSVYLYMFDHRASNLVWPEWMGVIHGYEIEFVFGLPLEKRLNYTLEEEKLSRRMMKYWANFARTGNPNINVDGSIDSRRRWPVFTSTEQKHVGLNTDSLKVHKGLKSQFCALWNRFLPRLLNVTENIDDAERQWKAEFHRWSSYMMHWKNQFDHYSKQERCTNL

Molecular target: T1, Electrophorus electricus (Ee) AChE (Electrophorus electricus, UniProt O42275)
T1 construct: purchased Sigma-Aldrich
Assay: Acetylcholinesterase inhibitory activity (Ellman method)
Format: biochemical

In the case of `N=C(N)NCCCCCCCCCNc1c2c(nc3ccccc13)CCCC2` [15e, 1-{9-[(1,2,3,4-Tetrahydroacridin-9-yl)amino]nonyl}guanidine], the “decrease in AChE inhibitory activity relative to huprine Y” value (EeAChE IC50 values) is reported as 100 fold and the “anticholinesterasic activity relative to activity against trypanosomes (greater)” value (EeAChE IC50 vs T. brucei IC50) is reported as 4 fold.
